The values below come from ChEMBL document CHEMBL1139370, “Discovery of 1-[9-(4-chlorophenyl)-8-(2-chlorophenyl)-9H-purin-6-yl]-4-ethylaminopiperidine-4-carboxylic acid amide hydrochloride (CP-945,598), a novel, potent, and selective cannabinoid type 1 receptor antagonist” (J Med Chem, 2009).

Sequences of proteins named here, by UniProt entry; tags and fusion partners are left off.
UniProt P21554, whole entry: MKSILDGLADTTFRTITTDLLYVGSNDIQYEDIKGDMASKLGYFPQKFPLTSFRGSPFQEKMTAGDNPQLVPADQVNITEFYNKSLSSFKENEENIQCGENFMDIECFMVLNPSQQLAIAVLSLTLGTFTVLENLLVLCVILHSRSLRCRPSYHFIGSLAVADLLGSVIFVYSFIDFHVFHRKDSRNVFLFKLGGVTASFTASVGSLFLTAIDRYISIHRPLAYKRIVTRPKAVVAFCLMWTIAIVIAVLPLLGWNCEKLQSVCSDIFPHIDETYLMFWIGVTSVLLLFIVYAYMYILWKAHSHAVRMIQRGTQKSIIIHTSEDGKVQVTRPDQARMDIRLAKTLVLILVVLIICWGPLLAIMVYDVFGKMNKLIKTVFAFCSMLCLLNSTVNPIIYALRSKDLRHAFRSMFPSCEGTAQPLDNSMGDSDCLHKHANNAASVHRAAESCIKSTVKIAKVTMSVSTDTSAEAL

The term Ki denotes the dissociation constant of the complex between target and ligand, obtained from inhibition or displacement. A high value points to weaker binding.

The target of test [1] is T1, Cannabinoid receptor 1 (Homo sapiens, UniProt P21554). Put plainly: Antagonist activity against human CB1 receptor expressed in CHO-K1 cells by [35S]GTPgamma binding assay. The test is classed as functional, cell-based.
For test [2], the target named is T1, Cannabinoid receptor 1. The test is classed as cell-based, HEK293.

Compound `CN1CCN(c2ncnc3c2nc(-c2ccccc2Cl)n3-c2ccc(Cl)cc2)CC1` displayed a Ki on Cannabinoid receptor 1 [1] of 1.6 nM. That is a single-digit nanomolar value.

`CCNC1(C(N)=O)CCN(c2ncnc3c2nc(-c2ccccc2Cl)n3-c2ccc(Cl)cc2)CC1` [OTENABANT]: the inhibition constant Ki at Cannabinoid receptor 1 [2] turned out to be 0.7 nM; on Cannabinoid receptor 1 [1], 0.12 nM.
